# Measured values: paper PMC4933725, “Traxoprodil, a selective antagonist of the NR2B subunit of the NMDA receptor, potentiates the antidepressant-like effects of certain antidepressant drugs in the forced swim test in mice” (Metabolic Brain Disease, 2016)
# Where a name gives a salt, the structure may show the parent alone.
# Tested on: mice
# Experiment: Spontaneous locomotor activity (Opto-Varimex-4 Auto-Track)
# Format: in vivo, Albino Swiss mice
# Details: administered either alone or combined together, doses of Table 2 (traxoprodil 10 and 20 mg/kg); two-way ANOVA
# Protocol: In order to avoid the risk of obtaining the false positive/negative effects in the FST caused by a possible influence of the tested drugs on the locomotor activity, spontaneous locomotor activity was measured using an animal activity meter Opto-Varimex-4 Auto-Track (Columbus Instruments, USA). The device consists of four transparent cages with a lid (43 × 43 × 32 cm), a set of four infrared emitters (each emitter has 16 laser beams), and four detectors monitoring animal movements. Each mouse was placed individually into the cage for 10 min. Spontaneous locomotor activity was evaluated between the 2nd and the 6th min, which corresponds with the time interval analyzed in the FST.
# The results obtained in this test were presented as an arithmetic average distance (given in cm) traveled by a mouse ± SEM for each experimental group.
compound,measurement,value
"CCOc1ccccc1OC(c1ccccc1)C1CNCCO1 (stereo not shown) [reboxetine, reboxetine mesylate]",effects on locomotor activity,no statistically significant effects
